Measurements taken from patent publication US5597798A, “Taxol and epidermal growth factor used to enhance treatment of ovarian cancer” (The Regents of the University of California, priority 1994, dated 1997).

Test system: 2008 human ovarian carcinoma cells
Experiment: Colony forming assay, effect of EGF on sensitivity to cytotoxic agents
Type: cell-based
Details: for effect of EGF on sensitivity of 2008 cells to the agent (in words): EGF and the cytotoxic agent concurrently for 1 h; for Dose modifying factor (ratio of the IC50 values in control and EGF-treated cells): mean ± SD of at least 3 experiments

Substance | effect of EGF on sensitivity of 2008 cells to the agent (in words) | Dose modifying factor (ratio of the IC50 values in control and EGF-treated cells)
4-hydroperoxycyclophosphamide | no significant effect | 0.9 ± 0.5
tetraplatin | significant increase in sensitivity | 1.6 ± 0.1
